# Experimental data: patent US7432303B2, “Chalcone and its analogs as agents for the inhibition of angiogenesis and related disease states” (James and Emory University, priority 1999, dated 2008)
# This is a selection: effects in other tests are not listed, and their absence says nothing.
# Test system: SVR cells
# Assay: SVR cell assay: cell numbers counted at 48 hours, percent inhibition versus control
smiles,measurement,setting,value
N#CC(C#N)=Cc1ccccc1,Percent Inhibition at a Specified Density (μg/ml): 1,"1 μg/ml, 10,000 SVR cells in 24 well dish",19.4%
same,Percent Inhibition at a Specified Density (μg/ml): 3,"3 μg/ml, 10,000 SVR cells in 24 well dish",15.9%
same,Percent Inhibition at a Specified Density (μg/ml): 6,"6 μg/ml, 10,000 SVR cells in 24 well dish",23.7%
